# Experiments:
# Sequences of proteins named here, by UniProt entry; tags and fusion partners are left off. A change or cut given only in a name is not applied to a line headed by its entry.
# UniProt Q12809: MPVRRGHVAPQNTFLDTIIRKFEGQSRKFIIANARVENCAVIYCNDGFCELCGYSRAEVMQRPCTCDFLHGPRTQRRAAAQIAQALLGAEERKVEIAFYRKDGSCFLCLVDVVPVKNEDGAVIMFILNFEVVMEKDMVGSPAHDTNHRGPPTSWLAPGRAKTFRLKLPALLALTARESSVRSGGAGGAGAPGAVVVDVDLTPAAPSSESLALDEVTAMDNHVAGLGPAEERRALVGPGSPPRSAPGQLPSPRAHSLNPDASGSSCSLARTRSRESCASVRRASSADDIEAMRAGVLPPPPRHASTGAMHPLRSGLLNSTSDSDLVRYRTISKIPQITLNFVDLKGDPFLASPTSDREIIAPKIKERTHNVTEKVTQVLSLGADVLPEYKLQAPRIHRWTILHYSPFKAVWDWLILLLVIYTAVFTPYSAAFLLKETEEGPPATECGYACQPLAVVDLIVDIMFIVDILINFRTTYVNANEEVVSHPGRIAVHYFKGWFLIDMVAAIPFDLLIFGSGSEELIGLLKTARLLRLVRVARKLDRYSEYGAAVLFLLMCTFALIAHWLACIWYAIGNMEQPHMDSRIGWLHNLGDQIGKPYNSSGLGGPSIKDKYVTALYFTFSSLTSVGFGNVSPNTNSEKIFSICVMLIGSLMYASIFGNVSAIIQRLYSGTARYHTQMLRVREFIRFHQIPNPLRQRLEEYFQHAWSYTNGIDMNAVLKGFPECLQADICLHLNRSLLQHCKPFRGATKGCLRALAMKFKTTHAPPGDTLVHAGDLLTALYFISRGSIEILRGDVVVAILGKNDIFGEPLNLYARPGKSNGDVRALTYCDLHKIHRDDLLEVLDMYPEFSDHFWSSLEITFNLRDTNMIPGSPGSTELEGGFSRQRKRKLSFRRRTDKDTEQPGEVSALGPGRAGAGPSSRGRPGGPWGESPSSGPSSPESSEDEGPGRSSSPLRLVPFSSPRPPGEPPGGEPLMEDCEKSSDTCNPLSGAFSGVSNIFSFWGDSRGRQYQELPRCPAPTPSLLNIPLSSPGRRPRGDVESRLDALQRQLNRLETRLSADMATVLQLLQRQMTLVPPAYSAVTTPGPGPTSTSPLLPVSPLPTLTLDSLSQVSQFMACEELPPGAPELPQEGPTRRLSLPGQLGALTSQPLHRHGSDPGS
# hERG (KCNH2) = hERG (KCNH2) (Homo sapiens, UniProt Q12809); experiment: (§1) Inhibition of human ERG channel; conditions: human
# [1] = target: Voltage-gated inwardly rectifying potassium channel KCNH2 (Homo sapiens, UniProt Q12809); experiment: as §1
SMILES,Ki (hERG (KCNH2)) [µM],IC50 [1] [µM],further results
c1ccc(-c2[nH]c3ccccc3c2C2CCCNC2)cc1 (stereo not given),4.9,–,–
CN1CCCCC1c1c(-c2ccccc2)[nH]c2ccccc12 (stereo not given),7,–,–
N#Cc1ccc(Cn2cncc2CN[C@H]2CCN(C(=O)c3cccc(Cl)c3)C2=O)cc1,–,5.8,–
F[C@@H]1CCNC[C@H]1c1c(-c2ccccc2)[nH]c2ccccc12,–,–,Ki [1]: 1.1 µM
COC(=O)c1[nH]c2cc(F)ccc2c1[C@@H]1CNCC[C@H]1F,8.2,–,–
Fc1ccc2c([C@@H]3CNCC[C@H]3F)c(C3CCCCC3)[nH]c2c1,5.4,–,–
Fc1ccc2c([C@@H]3CNCC[C@H]3F)c(-c3cccnc3)[nH]c2c1,2.5,–,–
CC(C)(C)OC(=O)NCCCN(Cc1cncn1Cc1ccc(C#N)cc1)[C@H]1CCN(Cc2ccccc2)C1=O,–,0.11,–
CNCCCN1c2ccccc2CCc2ccccc21 [DESIPRAMINE],–,–,pIC50 ([1]; human): 5.857
O=C1Cc2cc(CCN3CCN(c4nsc5ccccc45)CC3)c(Cl)cc2N1 [ZIPRASIDONE],–,0.125,–
